Laboratory results taken from patent US7566777.

Target: T1, LH receptors on bovine granulosa cells and bovine small luteal cells (bovine), Q28005
T1 chain: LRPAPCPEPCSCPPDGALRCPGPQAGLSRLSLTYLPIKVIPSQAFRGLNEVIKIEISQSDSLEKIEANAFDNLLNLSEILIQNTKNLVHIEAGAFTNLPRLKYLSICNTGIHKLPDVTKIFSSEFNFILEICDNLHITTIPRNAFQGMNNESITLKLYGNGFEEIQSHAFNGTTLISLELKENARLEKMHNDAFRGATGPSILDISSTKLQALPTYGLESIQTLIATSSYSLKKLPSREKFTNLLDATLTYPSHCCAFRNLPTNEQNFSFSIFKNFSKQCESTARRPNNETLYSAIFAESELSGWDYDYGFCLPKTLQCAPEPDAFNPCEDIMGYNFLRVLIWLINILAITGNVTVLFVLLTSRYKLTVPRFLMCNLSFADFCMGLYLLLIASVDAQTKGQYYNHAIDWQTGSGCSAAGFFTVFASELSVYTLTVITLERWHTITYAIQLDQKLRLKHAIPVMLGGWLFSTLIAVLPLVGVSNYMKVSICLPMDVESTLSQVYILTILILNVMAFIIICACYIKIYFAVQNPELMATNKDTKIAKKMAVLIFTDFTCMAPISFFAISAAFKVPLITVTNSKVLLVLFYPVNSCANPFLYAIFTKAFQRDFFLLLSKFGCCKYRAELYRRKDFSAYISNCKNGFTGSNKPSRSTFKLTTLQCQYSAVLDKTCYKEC
Assay: cell-based or functional assay

FALALKALKKALKKLKKALKKALSYAVALSCECALCRR (modifications not checked) [hecate-bLH conjugate]
killing of bovine granulosa cells at 1 µM (Trypan Blue exclusion) (fold against hecate alone): 2
